Measurements from publication PMC3642088, “Phosphorylation of CDK9 at Ser175 Enhances HIV Transcription and Is a Marker of Activated P-TEFb in CD4^+ T Lymphocytes” (PLoS Pathogens, 2013).

Tests used:
Settings in all cases: partners not purified
FLAG-CDK9 T186D = target: T1, FLAG-CDK9 T186D (human, T186D); experiment: co-IP; anti-FLAG IP of FLAG-CDK9 wildtype or mutants from latently infected Jurkat T-cells induced for 16 hr with TNF-α to express Tat, Western blot for BRD4, Tat and CycT1; levels normalised to total CDK9, three experiments
T1 construct: also called T186D CDK9

FLAG-CDK9 T186A = target: T2, FLAG-CDK9 T186A (human, T186A); experiment: as above
T2 construct: also called T186A CDK9

FLAG-CDK9 S175A [1] = target: T3, FLAG-CDK9 S175A (human, S175A); experiment: as above
T3 construct: also called S175A CDK9; Ser175Ala

FLAG-CDK9 S175D [2] = target: T4, FLAG-CDK9 S175D (human, S175D); experiment: as above
T4 construct: also called S175D CDK9; Ser175Asp

FLAG-CDK9 S175A [3] = target: T3, FLAG-CDK9 S175A; experiment: co-IP; anti-FLAG M2 agarose IP of FLAG-CDK9 wildtype or mutants from whole cell extracts (lysis buffer A) of Jurkat 2D10 cells, FLAG peptide elution, Western blot; densitometry normalised to total immunoprecipitated CDK9, five experiments
FLAG-CDK9 S175D [4] = target: T4, FLAG-CDK9 S175D; experiment: as above

B1: Cyclin T1 (natural protein, human (endogenous in Jurkat), UniProt O60563 1-726, looked up)
chain: MEGERKNNNKRWYFTREQLENSPSRRFGVDPDKELSYRQQAANLLQDMGQRLNVSQLTINTAIVYMHRFYMIQSFTQFPGNSVAPAALFLAAKVEEQPKKLEHVIKVAHTCLHPQESLPDTRSEAYLQQVQDLVILESIILQTLGFELTIDHPHTHVVKCTQLVRASKDLAQTSYFMATNSLHLTTFSLQYTPPVVACVCIHLACKWSNWEIPVSTDGKHWWEYVDATVTLELLDELTHEFLQILEKTPNRLKRIWNWRACEAAKKTKADDRGTDEKTSEQTILNMISQSSSDTTIAGLMSMSTSTTSAVPSLPVSEESSSNLTSVEMLPGKRWLSSQPSFKLEPTQGHRTSENLALTGVDHSLPQDGSNAFISQKQNSKSVPSAKVSLKEYRAKHAEELAAQKRQLENMEANVKSQYAYAAQNLLSHHDSHSSVILKMPIEGSENPERPFLEKADKTALKMRIPVAGGDKAASSKPEEIKMRIKVHAAADKHNSVEDSVTKSREHKEKHKTHPSNHHHHHNHHSHKHSHSQLPVGTGNKRPGDPKHSSQTSNLAHKTYSLSSSFSSSSSTRKRGPSEETGGAVFDHPAKIAKSTKSSSLNFSFPSLPTMGQMPGHSSDTSGLSFSQPSCKTRVPHSKLDKGPTGANGHNTTQTIDYQDTVNMLHSLLSAQGVQPTQPTAFEFVRPYSDYLNPRSGGISSRSGNTDKPRPPPLPSEPPPPLPPLPK
notes: also called CycT1; hCycT1
B1 was tested, and the “percent of wildtype binding” value (FLAG-CDK9 T186D) was 49.4%, the “percent of wildtype binding” value (FLAG-CDK9 T186A) was 8% and the “percent of wildtype binding” value (FLAG-CDK9 S175A [1]) was 98.9%. For the same binder, the “percent of wildtype binding” value (FLAG-CDK9 S175D [2]) was 78.9%, the “percent co-immunoprecipitated against wildtype CDK9” value (FLAG-CDK9 S175A [3]) was > 90% and the “percent co-immunoprecipitated against wildtype CDK9” value (FLAG-CDK9 S175D [4]) was 77.8%.
